Data published in US20240083996A1, “COMPOSITION FOR PROPHYLAXIS OR TREATMENT OF IL-8 RELATED DISEASES” (Chugai Seiyaku Kabushiki Kaisha, priority 2016, published 2024).
Changes are numbered by the printed parent chain.

By UniProt entry, the sequences of proteins in these tests, tags left out. Residues count along the entry.
UniProt P10145, 23-99 limits assumed: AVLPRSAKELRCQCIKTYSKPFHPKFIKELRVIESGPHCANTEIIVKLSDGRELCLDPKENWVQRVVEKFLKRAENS

B1: H89/L118: pH-dependent IL-8-binding antibody, H89-IgG1 heavy chain, L118-kOMT (SEQ ID NO:44) light chain (antibody)
heavy: QVQLVESGGGLVQPGGSLRLSCAASGFTFSDYYLSWVRQAPGKGLEWVGLIRNKANGYTREYSASVKGRFTISRDDSKNSLYLQMSSLKTEDTAVYYCARENHRYDVELAYWGQGTLVTVSSASTKGPSVFPLAPSSKSTSGGTAALGCLVKDYFPEPVTVSWNSGALTSGVHTFPAVLQSSGLYSLSSVVTVPSSSLGTQTYICNVNHKPSNTKVDKKV[human IgG1 Fc skipped]
light: DIQMTQSPSSLSASVGDRVTITCRASEIIYSYLAWYQQKPGKAPKLLIYHAKTHADGVPSRFSGSGSGTDFTFTISSLQPEDIATYYCKHHFGFPRTFGQGTKVEIKRTVAAPSVFIFPPSDEQLKSGTASVVCLLNNFYPREAKVQWKVDNALQSGNSQESVTEQDSKDSTYSLSSTLTLSKADYEKHKVYACEVTHQGLSSPVTKSFNRGEC
B2: Hr9: humanized anti-human IL-8 antibody, Hr9-IgG1 (SEQ ID NO:41) heavy chain, hWS4L-kOMT light chain (antibody)
heavy: B1 heavy with H103Y
light: B1 light with H50N, H54L, K89Q

Experiments:
[1] = tested on: PathHunter CHO-K1 CXCR2 β-Arrestin cell line (human IL-8-mediated signals); assay: Stability of human IL-8-neutralizing activity in mouse plasma (human IL-8 inhibition assay using human CXCR2-expressing cells); assay type: cell-based; conditions: antibody 0.2 mg/mL in mouse plasma, 40° C., one and two weeks; human IL-8 2 nM (FIGS. 18-1 to 18-3)
Experimental: Mouse plasma was collected from the blood of C57BL/6J (Charles River) by a method known to those skilled in the art. 200 μL of 200 mM PBS (Sigma, P4417) was added to 800 μL of mouse plasma to give 1 mL. Furthermore, sodium azide was added at a final concentration of 0.1% as an antiseptic. […] At this point, a portion of the sample was collected as the initial sample. The remaining sample was stored at 40° C. One week and two weeks after storage, a portion of each sample was collected, and they were used as the one-week-stored sample and the two-week-stored sample. All samples were frozen at −80° C. and stored until each analysis was performed.
Next, anti-IL-8 antibodies contained in mouse plasma were evaluated for their human IL-8-neutralizing activity as follows: CXCR1 and CXCR2 are known receptors for human IL-8. The PathHunter(registered trademark) CHO-K1 CXCR2 β-Arrestin cell line (DiscoveRx Co., Cat. #93-0202C2) expresses human CXCR2, and is a cell line artificially produced so as to emit chemiluminescence when human IL-8-mediated signals are transmitted. […]
Then, the above-mentioned cell line was used to examine whether the neutralizing activity of an antibody stored in mouse plasma was maintained. […] Next, a detection reagent was added according to the protocol of the product, and the relative chemiluminescence level was detected using a chemiluminescence detector. […]

human IL-8 = human IL-8 (Homo sapiens, UniProt P10145); assay: Mouse PK assay: human IL-8 elimination after simultaneous administration of human IL-8 and anti-human IL-8 antibody; assay type: in vivo, mice (C57BL/6J); conditions: mice
Experimental: After simultaneous administration of human IL-8 and anti-human IL-8 antibodies to mice (C57BL/6J, Charles river), pharmacokinetics of human IL-8 were evaluated. A mixed solution of human IL-8 and an anti-human IL-8 antibody (10 μg/mL and 200 μg/mL, respectively) was administered in a single dose at 10 mL/kg to the tail vein. […] Blood was collected five minutes, two hours, four hours, seven hours, one day, two days, three days, seven days, 14 days, 21 days, and 28 days after the administration. The collected blood was immediately centrifuged at 15,000 rpm and 4° C. for 15 minutes to obtain plasma. The separated plasma was stored in a freezer set at −20° C. or below until measurements were taken.
The human IL-8 concentration in mouse plasma was determined by an electrochemiluminescence method. First, an anti-human IL-8 antibody (prepared in-house) having a mouse IgG constant region was dispensed into a MULTI-ARRAY 96-well Plate (Meso Scale Discovery), and was allowed to stand at room temperature for one hour. Then, a PBS-Tween solution containing 5% BSA (w/v) was used for blocking at room temperature for two hours to prepare an anti-human IL-8 antibody-immobilized plate. […] The human IL-8 concentration was calculated based on the response in the calibration curve using the analytical software, SOFT Max PRO (Molecular Devices). […]

Molecule | human IL-8-neutralizing activity before and after storage in mouse plasma [1] | slowing of the rate of human IL-8 elimination, 8 mg/kg group compared to 2 mg/kg group (human IL-8) | rate of human IL-8 elimination (CL) as compared to H998/L63 (human IL-8; antibody 2 mg/kg with human IL-8)
B1 | differences in the human IL-8-neutralizing activity before and after storage in mouse plasma were not observed | approximately 2 fold | about 19 fold
B2 | differences in the human IL-8-neutralizing activity before and after storage in mouse plasma were not observed |  | 
